Reference: ChEMBL document CHEMBL4622845, “p62/SQSTM1, a Central but Unexploited Target: Advances in Its Physiological/Pathogenic Functions and Small Molecular Modulators” (J Med Chem, 2020)

Sequences of proteins named here, by UniProt entry; tags and fusion partners are left off. A change or cut given only in a name is not applied to a line headed by its entry.
UniProt P23443: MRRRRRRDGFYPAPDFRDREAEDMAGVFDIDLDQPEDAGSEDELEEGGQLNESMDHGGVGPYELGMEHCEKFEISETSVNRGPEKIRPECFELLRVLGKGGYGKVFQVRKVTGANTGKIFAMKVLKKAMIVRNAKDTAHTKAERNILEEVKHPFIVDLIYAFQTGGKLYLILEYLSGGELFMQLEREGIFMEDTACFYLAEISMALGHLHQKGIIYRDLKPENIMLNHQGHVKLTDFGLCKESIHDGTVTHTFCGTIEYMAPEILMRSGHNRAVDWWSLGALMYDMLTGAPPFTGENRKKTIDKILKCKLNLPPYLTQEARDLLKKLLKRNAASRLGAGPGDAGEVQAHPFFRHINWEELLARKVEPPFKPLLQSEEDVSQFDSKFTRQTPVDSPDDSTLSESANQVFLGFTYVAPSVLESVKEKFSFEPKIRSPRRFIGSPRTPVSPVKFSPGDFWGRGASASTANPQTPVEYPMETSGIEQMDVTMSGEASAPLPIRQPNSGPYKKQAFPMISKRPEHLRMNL

Biological target: Ribosomal protein S6 kinase beta-1 (Homo sapiens, UniProt P23443)

CCc1cncnc1N1CCN(Cc2nc3cc(C(F)(F)F)ccc3[nH]2)CC1
IC50: 160 nM | Ki: 20 nM
